Literature values in patent US20090196930A1, “AEROSOLIZED NITRITE AND NITRIC OXIDE -DONATING COMPOUNDS AND USES THEREOF” (Aires Pharmaceuticals, Inc., priority 2007, published 2009).

Conditions: NAL MDI, 2 mg per puff, healthy volunteers; cited from earlier work

L-lysine-N-acetylcysteinate [NAL]
fraction of dose able to reach the lungs: approximately 10%
